In ChEMBL document CHEMBL6134854, “Development of Hydrazide-Based HDAC6 Selective Inhibitors for Treating NLRP3 Inflammasome-Related Diseases” (J Med Chem, 2025):
Active and inactive are the calls of the source. The calls are words filed in the database; no cut-off is given here.

Target: T1, Protein deacetylase HDAC6 (Mus musculus) (UniProt Q9Z2V5)
T1 sequence (whole entry): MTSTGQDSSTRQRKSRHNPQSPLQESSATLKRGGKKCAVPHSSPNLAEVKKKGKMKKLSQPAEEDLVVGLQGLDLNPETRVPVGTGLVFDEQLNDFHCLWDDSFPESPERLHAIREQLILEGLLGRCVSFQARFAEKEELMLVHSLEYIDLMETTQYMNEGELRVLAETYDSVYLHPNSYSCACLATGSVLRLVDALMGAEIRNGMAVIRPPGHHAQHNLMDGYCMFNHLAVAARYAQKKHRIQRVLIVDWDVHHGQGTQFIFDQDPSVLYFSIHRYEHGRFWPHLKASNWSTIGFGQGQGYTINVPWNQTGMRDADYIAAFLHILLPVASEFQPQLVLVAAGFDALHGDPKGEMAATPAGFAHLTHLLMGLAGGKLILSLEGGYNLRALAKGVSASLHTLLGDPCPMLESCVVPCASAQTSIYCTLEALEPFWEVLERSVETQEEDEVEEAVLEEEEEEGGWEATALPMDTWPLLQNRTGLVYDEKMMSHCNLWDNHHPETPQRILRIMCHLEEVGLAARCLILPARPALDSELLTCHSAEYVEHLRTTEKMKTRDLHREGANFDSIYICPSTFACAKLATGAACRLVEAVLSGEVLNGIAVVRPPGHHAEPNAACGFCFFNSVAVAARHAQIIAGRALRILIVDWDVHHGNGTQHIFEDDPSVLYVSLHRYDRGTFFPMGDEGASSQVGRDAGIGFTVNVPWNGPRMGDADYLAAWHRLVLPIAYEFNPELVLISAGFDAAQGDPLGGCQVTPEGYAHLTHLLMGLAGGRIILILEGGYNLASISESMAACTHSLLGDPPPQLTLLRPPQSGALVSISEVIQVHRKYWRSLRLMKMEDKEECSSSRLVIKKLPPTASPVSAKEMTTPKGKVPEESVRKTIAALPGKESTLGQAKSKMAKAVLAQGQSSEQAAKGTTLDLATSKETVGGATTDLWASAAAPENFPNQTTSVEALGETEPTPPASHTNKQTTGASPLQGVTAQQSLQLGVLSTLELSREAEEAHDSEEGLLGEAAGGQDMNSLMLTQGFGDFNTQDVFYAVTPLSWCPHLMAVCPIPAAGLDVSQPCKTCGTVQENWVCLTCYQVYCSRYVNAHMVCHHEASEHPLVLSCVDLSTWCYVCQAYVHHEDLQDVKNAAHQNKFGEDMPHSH
Settings: BALB/C, dose 20-40 mg/kg, route po, time 8.0 day

inhibition: Active
Compound: CCNNC(=O)c1cc(F)c(CN2c3ccccc3C=Cc3ccncc32)cc1F
